# Measurements as given in PubChem BioAssay AID588405 (Sanford-Burnham Center for Chemical Genomics, 2011).
# The list shows a part of the results, in another mix than the full data. Some salts or complexes appear as unconnected parts, following the source record. Calls of active or inactive are those of the source.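 Rule for the calls: active = inhibition of at least 50% at 20 µM; inactive = the rest.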
# Assay: inhibition of PEG-3 promoter activity – cell-based, HeLa, luciferase luminescence, primary screen (AID 588405)
# Details: HeLa PEG-Prom luciferase reporter, overnight, at 20 µM, hits give high values
row,Structure (SMILES),inhibition
1,CCN(CC)CCCOC(=O)C(O)(c1ccccc1)c1ccccc1,inactive: 11.8%
2,Cc1cc(C)cc(OP(C)(N)=O)c1 (centres undefined),inactive: 0.16%
3,COc1ccccc1OP(C)(=O)Nc1cc(Cl)ccc1C (centres undefined),inactive: 12.7%
4,COc1ccc(OP(C)(=O)Nc2cccc(F)c2)cc1 (centres undefined),inactive: 2.85%
5,COc1ccccc1OP(C)(=O)Nc1ccc(C)cc1 (centres undefined),inactive: 14.3%
6,Cc1ccc(NP(C)(=O)Oc2ccccc2)c(C)c1 (centres undefined),inactive: 22.8%
7,CCOC(=O)c1ccc(NP(C)(=O)Oc2ccccc2)cc1 (centres undefined),inactive: 0.39%
8,O=[N+]([O-])c1ccc2c(c1)C=Nc1ccccc1O2,inactive: 18.1%
9,CC(C)(C)c1ccc(OP(C)(=O)Nc2ccc(SC(F)(F)F)cc2)cc1 (centres undefined),inactive: 19.7%
10,Cc1cccc(C)c1OP(C)(N)=O (centres undefined),inactive: 16.1%
11,O=[N+]([O-])c1cc([N+](=O)[O-])c(Nc2cccnc2)c([N+](=O)[O-])c1,inactive: 30.3%
12,CP(=O)(Nc1ccccc1Br)Oc1ccccc1 (centres undefined),inactive: -11.7%
13,COc1ccccc1OP(C)(=O)Nc1ccccc1 (centres undefined),inactive: 3.88%
14,CP(=S)(Nn1cnnc1)Oc1ccccc1 (centres undefined),inactive: -1.15%
15,CP(=O)(Nc1ccccn1)Oc1ccc(Cl)cc1 (centres undefined),inactive: 21.1%
16,CCOC(=O)c1ccc(NP(C)(=O)Oc2ccc(OC)cc2)cc1 (centres undefined),inactive: 9.44%
17,O=[N+]([O-])c1cc([N+](=O)[O-])c(O)c([N+](=O)[O-])c1.c1ccc(Oc2ccncc2)cc1,inactive: 6.87%
18,CCOP(C)(=S)SCC(=O)NC(C)C(=O)O (centres undefined),inactive: 20.7%
19,CP(=O)(NC(=O)Nc1ccccc1)Oc1ccccc1 (centres undefined),inactive: 8.98%
20,CCc1ccc(OP(C)(=O)N2CCN(c3ccc([N+](=O)[O-])cc3)CC2)cc1 (centres undefined),inactive: 31.6%
21,Cc1cc(C)cc(OP(C)(=O)Nc2ccc(SC(F)(F)F)cc2)c1 (centres undefined),inactive: 22.5%
22,Cc1cccc(C)c1OP(C)(=O)Nc1ccc(SC(F)(F)F)cc1 (centres undefined),inactive: -71.5%
23,Cc1ccc(Nc2c([N+](=O)[O-])cc([N+](=O)[O-])cc2[N+](=O)[O-])cc1,inactive: 15.4%
24,CP(=O)(Nc1ccc(SC(F)(F)F)cc1)Oc1ccc(Cl)cc1 (centres undefined),inactive: 22.1%

row,Structure (SMILES),inhibition
1,CP(=O)(Oc1ccccc1)OC(c1ccccc1)C(F)(F)F (centres undefined),inactive: 6.61%
2,Cc1nc2ccc3ccccc3c2s1.O=[N+]([O-])c1cc([N+](=O)[O-])c(O)c([N+](=O)[O-])c1,inactive: -0.88%
3,O=[N+]([O-])c1cc([N+](=O)[O-])c(-c2cnn(-c3ccccc3)c2)c([N+](=O)[O-])c1,inactive: 13.9%
4,CN(Cc1cccnc1)C(=O)COc1ccc(Cl)c(Cl)c1.O=[N+]([O-])c1cc([N+](=O)[O-])c(O)c([N+](=O)[O-])c1,inactive: -8.75%
5,O=[N+]([O-])c1cc([N+](=O)[O-])c(-n2nnc3ccccc32)c([N+](=O)[O-])c1,inactive: -6.65%
6,CCCOc1ccc(NP(C)(=O)Oc2ccc(Cl)cc2)cc1 (centres undefined),inactive: 19.3%
7,CP(=O)(Nc1ccc(SC(F)(F)F)cc1)Oc1ccccc1 (centres undefined),inactive: 19.2%
8,COc1ccccc1OP(C)(=O)Nc1c(C)cccc1C (centres undefined),inactive: 8.19%
9,CN1CCCCC1COC(=O)C1(O)c2ccccc2CCc2ccccc21 (centres undefined),inactive: 8.78%
10,CC1=C2N=C(C=C3N=C(C(C)=C4[N-][C@@](C)([C@@H]5N=C1[C@](C)(CCC(=O)NC[C@@H](C)OP(=O)([O-])O[C@H]1[C@@H](O)[C@@H](n6cnc7cc(C)c(C)cc76)O[C@@H]1CO)[C@H]5CC(N)=O)[C@@](C)(CC(N)=O)[C@@H]4CCC(N)=O)[C@@](C)(CC(N)=O)[C@@H]3CCC(N)=O)C(C)(C)[C@@H]2CCC(N)=O.[C-]#N.[Co+3],inactive: -17.3%
11,O=[N+]([O-])c1cc([N+](=O)[O-])c(Nc2nnnn2CCO)c([N+](=O)[O-])c1,inactive: -9.91%
12,CCOC(=O)C(CC)C1=NC(C)(C)Cc2ccccc21.O=[N+]([O-])c1cc([N+](=O)[O-])c(O)c([N+](=O)[O-])c1 (centres undefined),inactive: 19.1%
13,CC1=NCCc2c1[nH]c1ccccc21.O=[N+]([O-])c1cc([N+](=O)[O-])c(O)c([N+](=O)[O-])c1,inactive: -8.9%
14,O=C(O)c1cccc(Nc2c([N+](=O)[O-])cc([N+](=O)[O-])cc2[N+](=O)[O-])c1,inactive: -0.56%
15,Cc1ccc(C)c(NP(C)(=O)Oc2ccccc2)c1 (centres undefined),inactive: 10.9%
16,Cc1cc(C)cc(OP(C)(=O)Nc2ccccn2)c1 (centres undefined),inactive: 8.13%
17,CP(=O)(Nc1cccc(Br)c1)Oc1ccccc1 (centres undefined),inactive: 8.69%
18,CCOC(=O)c1ccc(NP(C)(=O)Oc2cc(C)cc(C)c2)cc1 (centres undefined),inactive: 19.2%
19,Cc1cc(C)cc(OP(C)(=O)Nc2ccc(C)cc2C)c1 (centres undefined),inactive: 20.6%
20,COc1ccccc1OP(C)(=O)Nc1cccc(Br)c1 (centres undefined),inactive: 5.69%
21,COc1ccc2c(c1O)-c1c(O)c(OC)cc3c1[C@H](C2)[N+](C)(C)CC3.O=[N+]([O-])c1cc([N+](=O)[O-])c([O-])c([N+](=O)[O-])c1[O-],inactive: 2.14%
22,O=C(OC1CN2CCC1CC2)c1ccc([N+](=O)[O-])cc1 (centres undefined),inactive: 7.98%
23,O=C(OCCN1CCN(CCOCc2ccccc2)CC1)C(O)(c1ccccc1)c1ccccc1,inactive: 1.48%
24,CP(=O)(Nc1ccccc1F)Oc1ccccc1 (centres undefined),inactive: -30.1%

row,Structure (SMILES),inhibition
1,CC(C)c1ccc(OP(C)(=O)Nc2ccc(SC(F)(F)F)cc2)cc1 (centres undefined),inactive: 16.2%
2,O=[N+]([O-])c1cc([N+](=O)[O-])c(Nc2ccc(Cl)cc2)c([N+](=O)[O-])c1,inactive: 46.1%
3,CP(=O)(Nc1ccccc1)Oc1ccc(F)cc1 (centres undefined),inactive: 4.88%
4,CCCCCOc1ccc(NP(C)(=O)Oc2ccc(Cl)cc2Cl)cc1 (centres undefined),inactive: 2.32%
5,O=[N+]([O-])c1cc([N+](=O)[O-])c(OC2CCCCC2O)c([N+](=O)[O-])c1 (centres undefined),inactive: 11.6%
6,Cc1c([N+](=O)[O-])cc([N+](=O)[O-])c(Br)c1[N+](=O)[O-],inactive: -2.61%
7,CCN(CC)CCCOC(=O)C(O)(c1ccccc1)C1CCCCC1 (centres undefined),inactive: -9.29%
8,CCOC(=O)c1ccc(NP(C)(=O)Oc2ccc(F)cc2)cc1 (centres undefined),inactive: -2.44%
9,COc1ccc(OP(C)(=O)Nc2ccc(SC(F)(F)F)cc2)cc1 (centres undefined),inactive: 10.2%
10,Cc1c(C(c2ccc3c(c2)OCO3)c2c(C)n(C)n(-c3ccccc3)c2=O)c(=O)n(-c2ccccc2)n1C.O=[N+]([O-])c1cc([N+](=O)[O-])c(O)c([N+](=O)[O-])c1,inactive: 1.56%
11,O=[N+]([O-])c1ccc(OP2(=O)COCCO2)cc1 (centres undefined),inactive: 0.43%
12,O=[N+]([O-])c1cc([N+](=O)[O-])c(NCC2CCS(=O)(=O)C2)c([N+](=O)[O-])c1 (centres undefined),inactive: 19.8%
13,Cc1cc(-c2cccc3ccccc23)c(C)cn1.O=[N+]([O-])c1cc([N+](=O)[O-])c(O)c([N+](=O)[O-])c1,inactive: -5.34%
14,CN(C)CCOC(=O)C(O)(c1ccccc1)C1CCCCC1 (centres undefined),inactive: -0.79%
15,COc1ccc(NP(C)(=O)Oc2ccccc2OC)cc1 (centres undefined),inactive: -7.54%
16,COc1ccc(OP(C)(=O)Nc2cccc(Br)c2)cc1 (centres undefined),inactive: 16.3%
17,Cc1ccccc1NP(C)(=O)Nc1ccccc1C,inactive: 2.5%
18,CP(=O)(Nc1ccc2c(c1)OCCO2)Oc1ccccc1 (centres undefined),inactive: -7.87%
19,CP(=O)(Nc1ccc(SC(F)(F)F)cc1)Oc1ccc(F)cc1 (centres undefined),inactive: 29.6%
20,CN(C)C(=O)c1c([N+](=O)[O-])cc([N+](=O)[O-])cc1[N+](=O)[O-],inactive: 12.6%
21,COc1ccccc1OP(C)(=O)Nc1ccccc1Br (centres undefined),inactive: 11.8%
22,CC(C)(C)c1ccc(OP(C)(=O)O)cc1,inactive: -5.48%
23,CP(=O)(Nc1ccc(Cl)cc1)Oc1ccc(F)cc1 (centres undefined),inactive: 5.59%
24,COc1ccccc1OP(C)(=O)Nc1c(C)n(C)n(-c2ccccc2)c1=O (centres undefined),inactive: 3.23%

row,Structure (SMILES),inhibition
1,O=C(OCCCN1CCCC1)C(O)(c1ccccc1)C1CCCCC1 (centres undefined),inactive: 0.39%
2,CP(=O)(Oc1ccccc1)N1CCOC1=O (centres undefined),inactive: 0.51%
3,CCc1ccc(OP(C)(=O)Nc2cccnc2)cc1 (centres undefined),inactive: 2.21%
4,CCN(CC)CC(O)COC(=O)C(O)(c1ccccc1)C1CCCCC1 (centres undefined),inactive: -24.3%
5,COc1ccc(OP(C)(=O)Nc2ccc(Br)cc2)cc1 (centres undefined),inactive: -14%
6,CCOC(=O)c1ccc(NP(C)(=O)Oc2ccc(Cl)cc2)cc1 (centres undefined),inactive: 18.9%
7,CP(=O)(OC12CC3CC(CC(C3)C1)C2)OC12CC3CC(CC(C3)C1)C2,inactive: 10.4%
8,CCCCCCCCCCCCCCCC1C[N+](C)(C)CCOP(C)(=O)O1 (centres undefined),active: 52.7%
9,CP(=O)(Nc1ccc(Cl)cc1Cl)Oc1ccccc1 (centres undefined),inactive: 14.7%
10,CP(=O)(OCCOc1ccccc1)OCCOc1ccccc1,inactive: 0.03%
11,COc1ccccc1OP(C)(=O)Nc1ccc(C)c(C)c1 (centres undefined),inactive: 6.82%
12,COc1ccc(OP(C)(=O)Nc2ccccc2Br)cc1 (centres undefined),inactive: 8.77%
13,O=C1C(O)=C([N+](=O)[O-])C(=O)C(O)=C1[N+](=O)[O-],inactive: -2.41%
14,Cc1cc(C)cc(OP(C)(=O)Nc2cccc(C(F)(F)F)c2)c1 (centres undefined),inactive: 12.4%
15,CP(=O)(Nc1ccccn1)Oc1ccccc1 (centres undefined),inactive: 2.6%
16,COc1ccccc1OP(C)(=O)Nc1ccc(C)cc1C (centres undefined),inactive: 6.74%
17,CCc1ccc(OP(C)(=O)O)cc1,inactive: -0.98%
18,Cc1c(NP(C)(=O)Oc2ccc(C(C)C)cc2)c(=O)n(-c2ccccc2)n1C (centres undefined),inactive: -2.94%
19,O=[N+]([O-])c1cc([N+](=O)[O-])c(Nc2ccccn2)c([N+](=O)[O-])c1,inactive: 26.6%
20,COc1ccc(OP(C)(=O)Nc2ccccn2)cc1 (centres undefined),inactive: 3.43%
21,CN(C)CCOC(=O)C(O)(c1ccccc1)C1CCCC1 (centres undefined),inactive: -0.79%
22,COc1ccccc1OP(C)(=O)Nc1ccc(Br)cc1 (centres undefined),inactive: 6.72%
